Literature values in patent US6995022B1, “Screening of xenobiotics and endogenous compounds for metabolic transformation, formation of toxic metabolites, and bioavailability” (Board of Trustees of the University of Illinois, priority 1998, dated 2006).

System: cytochrome P450 isozymes
Details: cited from earlier work

CN(C)CCCN1c2ccccc2CCc2ccccc21 [imipramine]
metabolism according to the literature: metabolized extensively
